The chains behind the UniProt entries cited, without tags or fusion partners.
UniProt P35372, whole entry: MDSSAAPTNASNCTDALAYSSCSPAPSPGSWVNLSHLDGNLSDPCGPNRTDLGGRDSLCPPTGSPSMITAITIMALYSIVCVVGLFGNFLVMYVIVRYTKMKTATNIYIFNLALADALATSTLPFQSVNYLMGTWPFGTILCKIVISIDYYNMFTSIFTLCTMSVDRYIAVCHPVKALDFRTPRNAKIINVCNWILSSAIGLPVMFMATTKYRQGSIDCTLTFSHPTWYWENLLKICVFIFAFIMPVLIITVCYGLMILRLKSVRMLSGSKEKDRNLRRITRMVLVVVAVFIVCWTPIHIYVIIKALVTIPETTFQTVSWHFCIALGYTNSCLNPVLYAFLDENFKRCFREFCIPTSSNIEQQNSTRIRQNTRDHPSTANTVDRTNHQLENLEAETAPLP
UniProt P41146, whole entry: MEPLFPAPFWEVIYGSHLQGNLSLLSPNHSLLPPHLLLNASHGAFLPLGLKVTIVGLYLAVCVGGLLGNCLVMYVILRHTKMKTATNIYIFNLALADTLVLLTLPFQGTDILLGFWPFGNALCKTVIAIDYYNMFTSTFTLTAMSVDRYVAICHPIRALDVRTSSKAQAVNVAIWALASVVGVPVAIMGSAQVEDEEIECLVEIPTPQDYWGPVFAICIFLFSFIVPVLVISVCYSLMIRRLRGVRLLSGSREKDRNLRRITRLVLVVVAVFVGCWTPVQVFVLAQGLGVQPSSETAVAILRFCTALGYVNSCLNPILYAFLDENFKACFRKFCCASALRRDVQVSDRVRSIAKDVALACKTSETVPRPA

In patent US7332519B2, “Spirocyclic cyclohexane compounds” (dated 2008):

What was measured:
[1] = test system: mouse; test: Analgesia test in the tail flick test in the mouse
From the text: Analgesia Test in the Tail Flick Test in the Mouse
The mice were each placed individually into a test cage, and the base of the tail was exposed to the focused heat ray of an electric lamp (tail-flick type 50/08/1.bc, Labtec, Dr. Hess). The intensity of the lamp was adjusted so that the time from switching on of the lamp to the sudden twitching away of the tail (latency of pain) in untreated mice was from 3 to 5 seconds. Before administration of the solutions comprising the compound according to the invention or of the particular comparison solutions, the mice were pre-tested twice over the course of five minutes, and the mean of those measurements was calculated as the pre-test mean.
The solutions of the compound of the general formula I according to the invention and the comparison solutions were then administered intravenously. Pain measurement was carried out in each case 10, 20, 40 and 60 minutes following the intravenous administration. The analgesic activity was determined as the increase in the latency of pain (% of the maximum possible antinociceptive effect) according to the following formula: [(T1−T0)/(T2−T0)]×100 where time T0 is the latency before administration, time T1 is the latency after administration of the active ingredient combination and time T2 is the maximum exposure time (12 seconds).

[2] = target: human μ-opiate receptor (Homo sapiens, UniProt P35372); test: Measurement of the μ-bond, [3H]-Naloxon displacement, membrane preparation of CHO-K1 cells expressing the receptor; details: read-out: ORμ_Nal Ki, Cheng-Prusoff conversion
Procedure: Measurement of the μ-Bond
The receptor affinity for the human g-opiate receptor was determined in a homogeneous mixture in microtitre plates. For this purpose, dilution series of the respective substituted spirocyclic cyclohexane compound to be tested were incubated with a receptor membrane preparation (15-40 μg protein per 250 μl incubation mixture) of CHO-K1 cells, which express the human μ-opiate receptor (RB-HOM receptor membrane preparation from NEN, Zaventem, Belgium) in the presence of 1 umole/liter of the radioactive ligand [^3H]-Naloxon (NET719, NEN, Zaventem, Belgium) and 1 mg WGA-SPA-beads (Wheat germ agglutinin SPA beads from Amersham/Pharmacia, Freiburg, Germany) in a total volume of 250 μl for 90 minutes at room temperature. 50 mmole/liter tris-HCl were added as incubation buffer with 0.05% by weight sodium azide and 0.06% by weight bovine serum albumin. 25 μmole/liter naloxon were also added to determine the non-specific bond. At the end of the 90 minute incubation period, the microtitre plates were centrifuged off for 20 minutes at 1000 g, and the radioactivity was measured in a β-counter (Microbeta-Trilux, PerkinElmer Wallac, Freiburg, Germany). The percentage displacement of the radioactive ligand from its bond with the human μ-opiate receptor at a concentration of the test substances of 1 μmole/liter was determined and given as a percentage inhibition (% inhibition) of the specific bond. IC50 inhibition concentrations, which bring about a 50% displacement of the radioactive ligand, were in some cases calculated by taking as a basis the percentage displacement by various concentrations of the compounds of general formula I to be tested. Ki values for the test substances were obtained by conversion using the Cheng-Prusoff equation.

[3] = target: ORL1 receptor (Homo sapiens, UniProt P41146); test: Measurement of ORL1 binding, 3H-nociceptin/orphanin FQ receptor binding assay with membranes of recombinant CHO-ORL1 cells; details: read-out: ORL1 Ki, 0.5 nM 3H-nociceptin/orphanin FQ
Procedure: Measurement of ORL1 Binding
The 4-aminocyclohexanol compounds of formula I were investigated in a receptor binding assay with ^3H-nociceptin/orphanin FQ with membranes of recombinant CHO-ORL1 cells. This test was conducted in accordance with the method described by Ardati et al. (Mol. Pharmacol., 51, 1997, p. 816-824). The concentration of ^3H-nociceptin/orphanin FQ in these experiments was 0.5 nM. The binding assays were carried out with 20 μg amounts of membrane protein per 200 μl batch in 50 mM Hepes, pH 7.4, 10 mM MgCl2 and 1 mM EDTA. The binding to the ORL1 receptor was determined using respective 1 mg amounts of WGA-SPA beads (Amersham-Pharmacia, Freiburg), by incubation of the batch for one hour at room temperature and subsequent measurement in a Trilux scintillation counter (Wallac, Finland). The affinity is given as the Ki value.

[4] = Place preference; details: compared to selective μ-opioids such as morphine
From the text: Example 7 induces muscle relaxation and anesthesia in mice at higher doses.

## CN(C)C1(c2cccs2)CCC2(CC1)OCCc1c2[nH]c2ccc(F)cc12 (stereo not shown)
[1]
  Tail Flick (mouse, i.v.) ED50: 0.028 mg/kg
[2]
  Ki: 0.09 nM

## CN(C)C1(c2ccsc2)CCC2(CC1)OCCc1c2[nH]c2ccccc12 (stereo not shown)
[2]
  Ki: 0.12 nM

## CN(C)C1(c2cccs2)CCC2(CC1)OCCc1c2[nH]c2ccccc12 (stereo not shown)
[3]
  Ki: 0.56 nM
[1]
  Tail Flick (mouse, i.v.) ED50: 0.0035 mg/kg
[4]
  place preference: reduced place preference
[2]
  Ki: 0.27 nM
